Results on two substances are retold here after patent US10131702B2, “Glucagon-GLP-1-GIP triple agonist compounds” (priority 2013, dated 2018).

Protein sequences, listed by entry. Tags and fused reporters are not part of them. Residues count along the entry.
UniProt P43220, 24-463: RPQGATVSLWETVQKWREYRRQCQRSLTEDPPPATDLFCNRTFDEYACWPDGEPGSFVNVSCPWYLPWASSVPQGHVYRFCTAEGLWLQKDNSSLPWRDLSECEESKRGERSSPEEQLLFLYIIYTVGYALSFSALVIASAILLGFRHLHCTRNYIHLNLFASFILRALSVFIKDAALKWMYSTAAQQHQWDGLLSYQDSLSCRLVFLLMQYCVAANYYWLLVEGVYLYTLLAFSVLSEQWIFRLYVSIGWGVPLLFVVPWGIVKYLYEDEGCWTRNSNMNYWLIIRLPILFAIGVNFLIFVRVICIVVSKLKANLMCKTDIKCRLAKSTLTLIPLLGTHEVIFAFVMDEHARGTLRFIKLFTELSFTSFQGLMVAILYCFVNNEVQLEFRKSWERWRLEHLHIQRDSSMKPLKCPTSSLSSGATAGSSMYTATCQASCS
UniProt P01275, 53-81: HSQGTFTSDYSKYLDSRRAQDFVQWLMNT

Assay [1] concerns the target T1, human GIP receptor (human, UniProt P48546 22-466).
T1 sequence: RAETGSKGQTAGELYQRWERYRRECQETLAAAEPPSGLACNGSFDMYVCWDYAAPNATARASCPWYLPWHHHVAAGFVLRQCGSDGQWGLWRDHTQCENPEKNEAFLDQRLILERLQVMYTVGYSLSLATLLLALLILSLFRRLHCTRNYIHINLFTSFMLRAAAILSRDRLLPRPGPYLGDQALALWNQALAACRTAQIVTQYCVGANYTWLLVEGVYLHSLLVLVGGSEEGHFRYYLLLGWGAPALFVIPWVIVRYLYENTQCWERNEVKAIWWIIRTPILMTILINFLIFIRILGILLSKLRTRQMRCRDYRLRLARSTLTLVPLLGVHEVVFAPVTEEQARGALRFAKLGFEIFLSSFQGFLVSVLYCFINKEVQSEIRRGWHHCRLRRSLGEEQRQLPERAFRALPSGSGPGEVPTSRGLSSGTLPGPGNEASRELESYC
Put plainly: cell-based or functional assay.

Assay [2] concerns the target T2, human GLP-1 R (Homo sapiens, UniProt P43220).
T2 construct: expressed in transfected cells
The assay can be described thus: cAMP induction in HEK293 cells expressing human GLP-1 R (AlphaScreen cAMP kit). The format is cell-based. Conditions: read-out: GLP1 R (EC50 in nM), Table 2b (most comprehensive data), average EC50, cAMP. Background: Alpha assays give light when donor and acceptor beads are brought close together.

Assay [3] addresses T3, human GIP R (Homo sapiens, UniProt P48546).
T3 construct: expressed in transfected cells
T3 sequence (P48546 22-466): T1 sequence
Put plainly: cAMP induction in HEK293 cells expressing human GIP R (AlphaScreen cAMP kit). The format is cell-based. To be noted: read-out: GIP R (EC50 in nM), Table 2b (most comprehensive data), average EC50, cAMP.

As to “glucagon (from UniProt P01275 53-81) (peptide)”, the EC50 (cAMP induction) in assay [1] amounted to 0.415 nM.
What is called EC50 is the concentration needed to bring the measured effect to its halfway point. With glucagon [reference compound], the EC50 in assay [2] came to 0.01 nM; in assay [3] it was 0.415 nM.
